Laboratory results taken from US20250019371A1, “SMALL-MOLECULAR INHIBITORS FOR THE BETA-CATENIN/ B-CELL LYMPHOMA 9 PROTEIN-PROTEIN INTERACTION” (H. LEE MOFFITT CANCER CENTER AND RESEARCH INSTITUTE, INC., priority 2021, published 2025).

Amino acid sequences for entries named in this document (tags omitted).
UniProt P35222, whole entry: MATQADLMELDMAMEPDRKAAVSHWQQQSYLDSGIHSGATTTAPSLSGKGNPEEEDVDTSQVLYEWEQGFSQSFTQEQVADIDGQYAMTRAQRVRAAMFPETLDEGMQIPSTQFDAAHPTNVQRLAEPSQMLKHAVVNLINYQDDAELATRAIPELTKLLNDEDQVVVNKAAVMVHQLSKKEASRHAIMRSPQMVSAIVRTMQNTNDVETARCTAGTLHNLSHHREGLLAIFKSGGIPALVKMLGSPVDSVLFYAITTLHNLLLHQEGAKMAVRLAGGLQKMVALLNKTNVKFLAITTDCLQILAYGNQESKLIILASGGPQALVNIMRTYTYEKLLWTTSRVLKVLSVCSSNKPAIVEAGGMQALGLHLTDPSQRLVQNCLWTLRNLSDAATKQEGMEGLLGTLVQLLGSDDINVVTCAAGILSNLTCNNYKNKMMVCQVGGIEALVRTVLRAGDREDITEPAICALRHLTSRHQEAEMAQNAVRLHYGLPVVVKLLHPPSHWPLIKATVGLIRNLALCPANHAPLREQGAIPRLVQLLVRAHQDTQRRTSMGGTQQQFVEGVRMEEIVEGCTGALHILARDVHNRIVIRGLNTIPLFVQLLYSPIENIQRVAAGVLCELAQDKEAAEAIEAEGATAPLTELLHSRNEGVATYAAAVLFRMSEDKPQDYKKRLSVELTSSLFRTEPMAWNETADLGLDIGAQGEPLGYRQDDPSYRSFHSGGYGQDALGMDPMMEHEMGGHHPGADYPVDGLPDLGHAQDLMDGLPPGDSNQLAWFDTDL

Target: T1, β-catenin/BCL9 PPI (Homo sapiens, UniProt P35222)
T1 construct: Full-length β-catenin (residues 1-781); host or cells: E. coli BL21 DE3
Experiment: AlphaScreen competitive inhibition assay of β-catenin/BCL9 PPI
Type: binding
Conditions: read-out: Ki for disruption of the β-catenin/BCL9 PPI
Procedure: AlphaScreen Assays of β-Catenin and BCL9 Interaction. Experiments were performed in white opaque 384-well plates from PerkinElmer (Waltham, MA), and the samples were read on a Biotek Synergy 2 plate reader (Winooski, VT) with excitation at 680 nm and emission at 570 nm. The standard AlphaScreen protocol was used with a sensitivity setting of 200. All dilutions were made in 1x assay buffer containing 25 mM Hepes (pH 7.4), 100 mM NaCl, 0.01% Triton X-100 and 0.1% BSA to minimize nonspecific interactions. For the competitive inhibition assays of the β-catenin/BCL9 PPI, the negative control (equivalent to 0% inhibition) refers to 5.0 nM biotinylated BCL9, 50 nM His6-tagged β-catenin, and 10 μg/mL donor and acceptor beads in a final volume of 25 μL assay buffer, but no tested inhibitor present. The positive control (equivalent to 100% inhibition) refers to 5.0 nM biotinylated BCL9 and 10 μg/mL donor and acceptor beads in a final volume of 25 μL assay buffer.
For the β-catenin/BCL9 assay, 5 nM biotinylated BCL9, and 50 nM His6-tagged 8-catenin were incubated in assay buffer for 30 min. Different concentrations of the tested inhibitor were added and incubated in 20 μL assay buffer for another 1 h. […] The IC50 value was determined by nonlinear least-square analysis of GraphPad Prism 8.0. […] The results were expressed as mean±standard deviation.

- Ki: 11 µM
Structure (SMILES): CC(C)c1ccc(COC(=O)N2CCC[C@@H](c3cccc(OC(C)(C)C(=O)O)c3)C2)cc1 [CP868388]
